Reference: patent publication US5679674A (priority 1992, dated 1997)

Amino acid sequences for entries named in this document (tags omitted). A change or cut given only in a name is not applied to a line headed by its entry. Residues count along the entry.
UniProt P41144: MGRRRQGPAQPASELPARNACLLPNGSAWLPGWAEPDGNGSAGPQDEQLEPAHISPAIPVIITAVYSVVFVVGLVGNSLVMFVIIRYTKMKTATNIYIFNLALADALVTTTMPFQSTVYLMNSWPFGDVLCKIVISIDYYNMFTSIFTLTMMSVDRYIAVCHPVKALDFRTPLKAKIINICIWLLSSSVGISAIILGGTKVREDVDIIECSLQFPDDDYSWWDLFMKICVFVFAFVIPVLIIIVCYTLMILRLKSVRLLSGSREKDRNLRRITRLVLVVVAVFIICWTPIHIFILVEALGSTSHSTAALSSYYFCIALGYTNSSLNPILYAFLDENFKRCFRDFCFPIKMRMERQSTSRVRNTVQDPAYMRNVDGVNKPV
UniProt A0ACM8Q262, 1-400: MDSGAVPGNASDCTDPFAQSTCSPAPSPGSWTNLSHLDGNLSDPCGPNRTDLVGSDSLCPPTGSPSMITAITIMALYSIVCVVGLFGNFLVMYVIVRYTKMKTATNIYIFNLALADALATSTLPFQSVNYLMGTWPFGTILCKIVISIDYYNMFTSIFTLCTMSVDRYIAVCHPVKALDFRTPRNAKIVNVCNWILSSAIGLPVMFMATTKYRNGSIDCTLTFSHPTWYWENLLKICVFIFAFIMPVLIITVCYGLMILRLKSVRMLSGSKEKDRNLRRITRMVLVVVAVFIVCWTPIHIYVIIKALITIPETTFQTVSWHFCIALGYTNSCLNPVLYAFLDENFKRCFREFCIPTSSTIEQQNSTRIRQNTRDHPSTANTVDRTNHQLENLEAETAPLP

Legend:
[1] = tested on: p-Phenylquinone-induced agony (writhing response) in mice; test: p-Phenylquinone-induced agony test in mice (hypodermic administration); type: in vivo, Male ddy mice; conditions: p-phenylquinone 15 minutes after compound, ED50 by probit method
k-receptor = k-receptor (Cavia porcellus, UniProt P41144); test: Receptor-affinity test: binding to k-receptor; conditions: read-out: Binding to the receptors (IC50, nM) k; 0.6 nM tritium-labelled ethylketocyclazocine; guinea pig brain membrane; 25° C., 45 minutes
μ-receptor = μ-receptor (Cavia porcellus, UniProt A0ACM8Q262); test: Receptor-affinity test: binding to μ-receptor; conditions: read-out: Binding to the receptors (IC50, nM) μ; 1 nM tritium-labelled DAGO; guinea pig brain membrane

SMILES: CN(C(=O)Cc1ccc(Cl)c(Cl)c1)[C@@H]1CCCC[C@H]1N1CCCC1 (relative stereo)
- Analgesic effect (ED50, μg/kg sc) Phenylquinone-induced agony test [1]: 490 µg/kg
- IC50 (k-receptor): 9.92 nM
- IC50 (μ-receptor): 636 nM
